Like-named read-outs stand apart in the source and are kept apart here.

This data set in a line: everolimus arterial tissue concentration in and next to the stented vessel. Type of data set: in vivo. Particulars: swine, 1070 μg, 8.0×28 mm stent; for concentration at 1 day: group 1, 1070 μg Lot #1, 1 day; for concentration at 3 days: group 1, 1070 μg Lot #1, 3 days; for concentration at 7 days: group 1, 1070 μg Lot #1, 7 days; for concentration at 14 days: group 1, 1070 μg Lot #1, 14 days; for concentration at 28 days: group 1, 1070 μg Lot #1, 28 days; for concentration at 56 days: group 1, 1070 μg Lot #1, 56 days; for concentration at 90 days: group 1, 1070 μg Lot #1, 90 days; for concentration at 180 days: group 1, 1070 μg Lot #1, 180 days.

[1] abbreviates: read-out: drug concentration in tissue proximal to stented region.
[2] abbreviates: arterial tissue of stented region, read-out: drug concentration in tissue of stented region.
[3] abbreviates: arterial tissue, unstented segment distal to stented region, read-out: drug concentration in tissue distal to stented region.

Turning to `CO[C@H]1C[C@@H]2CC[C@@H](C)[C@@](O)(O2)C(=O)C(=O)N2CCCC[C@H]2C(=O)O[C@H]([C@H](C)C[C@@H]2CC[C@@H](OCCO)[C@H](OC)C2)CC(=O)[C@H](C)/C=C(\C)[C@@H](O)[C@@H](OC)C(=O)[C@H](C)C[C@H](C)/C=C/C=C/C=C/1C` [everolimus, 40-O-(2-hydroxyethyl)-rapamycin], under setting [1], the concentration at 1 day worked out at 403 ng/g, the concentration at 3 days was found to be 199 ng/g, the concentration at 7 days turned out to be 159 ng/g and the concentration at 14 days worked out at 105 ng/g. In addition, under setting [1], the concentration at 28 days amounted to 66 ng/g, the concentration at 56 days amounted to 19 ng/g, the concentration at 90 days came out at 12 ng/g and the concentration at 180 days was found to be 4 ng/g. Also, under setting [2], the concentration at 1 day came to 9960 ng/g, the concentration at 3 days turned out to be 12900 ng/g, the concentration at 7 days was determined as 10900 ng/g and the concentration at 14 days was determined as 6420 ng/g. Also, under setting [2], the concentration at 28 days amounted to 5830 ng/g, the concentration at 56 days came out at 833 ng/g, the concentration at 90 days turned out to be 833 ng/g and the concentration at 180 days is 209 ng/g. Besides, under setting [3], the concentration at 1 day was 874 ng/g, the concentration at 3 days was determined as 870 ng/g, the concentration at 7 days amounted to 739 ng/g and the concentration at 14 days was 296 ng/g. For the same molecule, under setting [3], the concentration at 56 days was 9 ng/g, the concentration at 90 days was found to be 9 ng/g and the concentration at 180 days amounted to 6 ng/g.
